Measurements: ChEMBL document CHEMBL4477243, “Discovery and SAR of a novel series of potent, CNS penetrant M4 PAMs based on a non-enolizable ketone core: Challenges in disposition” (Bioorg Med Chem Lett, 2016)
Activity calls are given as the source filed them. The rule behind the calls is not given here.

Amino acid sequences for entries named in this document (tags omitted). A change or cut given only in a name is not applied to a line headed by its entry.
UniProt P11229: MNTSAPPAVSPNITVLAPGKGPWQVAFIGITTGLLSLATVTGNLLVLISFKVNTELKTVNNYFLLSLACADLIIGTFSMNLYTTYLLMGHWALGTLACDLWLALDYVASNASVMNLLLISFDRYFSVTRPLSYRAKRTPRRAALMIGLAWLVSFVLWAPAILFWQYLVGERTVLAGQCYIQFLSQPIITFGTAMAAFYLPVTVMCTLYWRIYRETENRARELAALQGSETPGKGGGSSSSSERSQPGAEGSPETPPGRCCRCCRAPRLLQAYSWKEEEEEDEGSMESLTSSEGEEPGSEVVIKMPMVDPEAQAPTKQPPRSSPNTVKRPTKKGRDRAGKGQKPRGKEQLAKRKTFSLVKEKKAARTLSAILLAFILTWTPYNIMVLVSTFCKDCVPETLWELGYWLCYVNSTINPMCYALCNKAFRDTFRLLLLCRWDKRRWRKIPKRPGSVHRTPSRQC

Target: Muscarinic acetylcholine receptor M1 (Homo sapiens) (UniProt P11229)
Experiment: Positive allosteric modulation activity at human M1 receptor

Activity: inactive
Compound: Cc1nc2sc(C(=O)c3ccccc3)c(N)c2c(C)c1C
